Literature values in patent publication US20040235712A1, “Coordination complexes having tethered therapeutic agents and/or targeting moieties, and methods of making and using the same” (priority 2003, published 2004).

System: estrogen receptor-positive, ER (+), cells
Conditions: ER (+) cells exposed to estrogen; cited from earlier work

estrogen [reference compound]
Sensitization of ER (+) cells towards cisplatin treatment: factor of two
